The text below walks through data of patent publication US4499286A, “Derivatives of thienylacetic acid amides and their pharmaceutically acceptable acid salts and a process for the preparation thereof” (dated 1985).

This assay has as its system μ. As to the kind of experiment: pharmacological study (μ-specific analgetics).

SMILES strings stand for the structures.

Take `CN(C(=O)Cc1cc(Cl)sc1Cl)[C@@H]1CCCC[C@H]1N1CCCC1.Cl` (relative stereo): the “receptor specificity of analgesia” value was “μ-specific analgetics”.

For the compound `CN(C(=O)Cc1cc(Cl)c(Cl)s1)[C@@H]1CCCC[C@H]1N1CCCC1.Cl` (relative stereo), the “receptor specificity of analgesia” value is reported as “μ-specific analgetics”.
